In PubChem BioAssay (NCI) one finds GI50 and TGI data, which are given here for 1 compound.

The subject of this experiment is MDA-MB-468 breast. Briefly: DTP human tumour cell line panel, 48 h.

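Protocol summary: plate cells (96-well), add compound at 5 concentrations, incubate 48 h, interpolate endpoints linearly. The concentration for 50% growth inhibition is given as GI50. The concentration for full growth arrest is given as TGI.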

In the case of `CCOc1ccc(N(CCCl)CCCl)cc1`, the GI50 (as a rule, the concentration giving 50% growth inhibition) is 0.845 µM and the TGI (usually the concentration giving total growth inhibition) amounted to 5.33 µM.
